Experimental data reported in patent US20030073837A1, “3-HETEROARYLIDENYL-2-INDOLINONE COMPOUNDS FOR MODULATING PROTEIN KINASE ACTIVITY AND FOR USE IN CANCER CHEMOTHERAPY” (priority 1998, published 2003).

Conditions: within 3 hours following intravenous administration, rats

fraction metabolized: greater than 90%
Substance: 3-[(2,4-dimethylpyrrol-5-yl)methylidenyl]-2-indolinone
